The target in this assay is fatty acid amide hydrolase (FAAH) (Rattus norvegicus (Rat), UniProt P97612). The experiment in a line: FAAH enzyme assay: inhibition of anandamide (AEA) hydrolysis, arachidonic acid quantified by HPLC. The following applies: eight-point assay. Format: biochemical. The protocol: The resulting supernatant is injected onto the HPLC.

By UniProt entry, the sequences of proteins in these tests, tags left out.
UniProt P97612, whole entry: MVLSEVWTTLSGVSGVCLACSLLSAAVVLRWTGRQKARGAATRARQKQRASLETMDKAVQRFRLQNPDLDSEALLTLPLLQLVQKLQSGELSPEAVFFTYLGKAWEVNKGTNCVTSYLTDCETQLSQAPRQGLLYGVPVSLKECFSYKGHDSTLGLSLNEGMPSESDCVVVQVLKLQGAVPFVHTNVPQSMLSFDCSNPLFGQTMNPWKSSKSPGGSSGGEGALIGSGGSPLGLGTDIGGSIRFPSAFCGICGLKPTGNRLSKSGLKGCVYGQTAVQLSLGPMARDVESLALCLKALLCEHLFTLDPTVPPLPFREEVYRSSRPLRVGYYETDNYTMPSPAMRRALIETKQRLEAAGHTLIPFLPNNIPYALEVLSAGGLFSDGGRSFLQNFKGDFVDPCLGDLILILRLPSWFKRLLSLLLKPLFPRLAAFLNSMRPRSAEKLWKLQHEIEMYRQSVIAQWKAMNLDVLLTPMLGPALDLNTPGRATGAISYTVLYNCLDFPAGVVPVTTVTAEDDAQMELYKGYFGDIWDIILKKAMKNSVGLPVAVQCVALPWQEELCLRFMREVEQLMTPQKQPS

Consider `O=S(=O)(F)CCCCCCCc1ccc(OCc2ccccc2)cc1` [Compound 13.1, 7-(4-Benzyloxy-phenyl)-heptanesulfonyl fluoride], for which the midpoint of inhibition (anandamide hydrolysis by FAAH), the IC50, lay at 168 nM. Also, under “calculated with Prizm software”, the Ki is 39 nM.

By IC50 is commonly meant the concentration needed to halve the response being measured. Higher therefore signals weaker potency. A word on the Ki: it is a measure of affinity in units of concentration, obtained from inhibition or displacement.

The values above are taken from patent publication US9102622B2 (University of Connecticut, priority 2006, dated 2015).
